This experiment concerns the target human Nav1.8 (Homo sapiens, UniProt Q9Y5Y9). Nature of the experiment: SyncroPatch384PE assay (automated patch clamp). It counts as cell-based. The method, then:
Compounds were tested on recombinant human Nav1.8/b3 stably transfected CHO cells using the SyncroPatch384PE system (Nanion Technologies), an automated patch clamp device. Cells were cultured at 37° C./5% CO2 in Ham's F-12 supplemented with 10% fetal bovine serum, 100 U/mL penicillin G sodium, […] streptomycin sulfate and selection antibiotics (0.01 mg/mL Blasticidin, 0.4 mg/mL Zeocin and 0.25 mg/mL Hygromycin). On the day of the recordings, cells in culture dishes were washed twice with Hank's Balanced Salt Solution (HBSS) and treated with Accutase for approximately 20 minutes. Immediately before use in the SynchroPatch384PE using an 8-hole NPC-384 chip, the cells were washed in HBSS to remove the Accutase and re-suspended in extracellular solution. All experiments were performed at ambient temperature. […]
Whole cell patch clamp recordings were conducted according to Nanion's standard procedure for SyncroPatch384PE®. […] Compounds were then applied by the SynchroPatch384 PE system into each well and the current was recorded for five minutes in extracellular solution, followed by application of tetracaine to achieve full block at the end of experiment. The potency of the compounds was assessed on two read-outs, resting state block (P1 measurement) or inactivated state block (P2 measurement) to obtain IC50 values. […]
In general terms: In patch-clamp work, channel activity is measured electrically.

Chains of the proteins cited; added tags and fusions are not shown.
UniProt Q9Y5Y9, whole entry: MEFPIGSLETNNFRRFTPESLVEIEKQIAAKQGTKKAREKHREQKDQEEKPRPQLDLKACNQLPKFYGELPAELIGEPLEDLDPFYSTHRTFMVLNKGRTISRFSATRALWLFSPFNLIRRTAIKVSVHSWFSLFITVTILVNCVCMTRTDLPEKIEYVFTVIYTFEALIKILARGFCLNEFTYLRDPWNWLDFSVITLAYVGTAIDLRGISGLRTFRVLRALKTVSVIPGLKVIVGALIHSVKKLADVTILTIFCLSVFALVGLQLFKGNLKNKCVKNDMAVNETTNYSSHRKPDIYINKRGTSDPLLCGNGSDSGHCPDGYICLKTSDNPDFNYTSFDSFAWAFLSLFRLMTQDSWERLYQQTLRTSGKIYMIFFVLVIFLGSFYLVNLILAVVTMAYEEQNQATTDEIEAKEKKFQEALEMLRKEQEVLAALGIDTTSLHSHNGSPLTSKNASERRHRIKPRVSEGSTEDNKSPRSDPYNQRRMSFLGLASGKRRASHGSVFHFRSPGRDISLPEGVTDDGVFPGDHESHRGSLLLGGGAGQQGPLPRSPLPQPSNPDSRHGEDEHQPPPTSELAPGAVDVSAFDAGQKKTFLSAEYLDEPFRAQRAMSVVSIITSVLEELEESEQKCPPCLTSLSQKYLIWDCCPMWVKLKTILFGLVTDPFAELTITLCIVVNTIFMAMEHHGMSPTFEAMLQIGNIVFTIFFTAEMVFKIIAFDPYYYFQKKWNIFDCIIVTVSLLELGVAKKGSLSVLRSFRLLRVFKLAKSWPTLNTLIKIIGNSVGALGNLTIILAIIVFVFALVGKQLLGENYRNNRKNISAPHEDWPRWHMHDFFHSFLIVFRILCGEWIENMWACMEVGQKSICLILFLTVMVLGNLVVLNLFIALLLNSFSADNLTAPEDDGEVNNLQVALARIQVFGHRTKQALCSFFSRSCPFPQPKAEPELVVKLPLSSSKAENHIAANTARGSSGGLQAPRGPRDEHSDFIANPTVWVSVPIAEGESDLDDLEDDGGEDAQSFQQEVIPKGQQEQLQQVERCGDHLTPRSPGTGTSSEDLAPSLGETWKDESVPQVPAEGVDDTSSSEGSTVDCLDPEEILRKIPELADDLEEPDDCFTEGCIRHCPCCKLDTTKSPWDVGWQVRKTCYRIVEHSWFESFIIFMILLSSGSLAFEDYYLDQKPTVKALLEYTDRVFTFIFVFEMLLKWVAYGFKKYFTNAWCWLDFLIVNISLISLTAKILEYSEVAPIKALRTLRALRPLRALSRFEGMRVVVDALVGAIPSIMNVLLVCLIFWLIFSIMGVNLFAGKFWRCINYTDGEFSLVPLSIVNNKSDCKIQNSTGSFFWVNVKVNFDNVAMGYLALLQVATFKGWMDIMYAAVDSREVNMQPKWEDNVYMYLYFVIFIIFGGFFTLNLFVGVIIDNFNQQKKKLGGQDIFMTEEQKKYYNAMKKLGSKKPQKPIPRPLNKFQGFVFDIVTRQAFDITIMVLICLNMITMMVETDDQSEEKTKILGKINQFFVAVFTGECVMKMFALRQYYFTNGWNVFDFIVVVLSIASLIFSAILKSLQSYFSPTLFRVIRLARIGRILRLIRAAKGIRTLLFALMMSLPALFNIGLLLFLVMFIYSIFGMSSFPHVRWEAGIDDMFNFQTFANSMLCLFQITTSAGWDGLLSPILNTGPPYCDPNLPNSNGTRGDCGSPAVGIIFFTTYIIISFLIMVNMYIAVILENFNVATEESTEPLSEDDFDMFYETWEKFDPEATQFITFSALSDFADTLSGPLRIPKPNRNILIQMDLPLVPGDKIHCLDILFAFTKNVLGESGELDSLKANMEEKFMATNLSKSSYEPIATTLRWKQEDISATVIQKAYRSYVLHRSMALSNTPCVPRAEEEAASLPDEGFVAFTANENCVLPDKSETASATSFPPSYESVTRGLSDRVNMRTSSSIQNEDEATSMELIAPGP

Where two headings read alike, the source gives them in different places. Bounds are passed on as bounds.

Consider `Cc1c(C(F)(F)F)cnc(N2CCCC(F)(F)CC2)c1C(=O)Nc1cccc([S@@](C)(=O)=NC(=O)[C@@H](C)N)c1`, for which the IC50 is < 5 nM (read-out: P1 IC50, resting state block (P1 measurement), human Nav1.8/b3 CHO cells) and < 5 nM (read-out: P2 IC50, inactivated state block (P2 measurement), human Nav1.8/b3 CHO cells).

Values taken from US20250154109A1, “SODIUM CHANNEL BLOCKING COMPOUNDS, DERIVATIVES THEREOF, AND METHODS OF THEIR USE” (LATIGO BIOTHERAPEUTICS, INC, priority 2022, published 2025).
